US20240277696A1, “METHODS OF TREATING NERVE AGENT-INDUCED SEIZURES” (published 2024)

Test system: nerve agent induced seizures
Assay: Arresting sarin (nerve agent) induced seizures in rodents, EEG scored by 7-point Likert Scale
Settings: rodents with sarin-induced seizures; tezampanel 2.5, 5, 7.5 or 15 mg/kg IM at 60 minutes (one cohort 6 hours) post sarin, after midazolam; hourly averages over 24 hours; FIG. 1

O=C(O)[C@@H]1C[C@H]2C[C@@H](CCc3nn[nH]n3)CC[C@H]2CN1
Electroencephalogram (EEG) derived seizure severity measured by a 7-point Likert Scale: successfully treated
